# Measured values from patent US9901560B2, “Methods and compositions for treatment of acute lung injury” (dated 2018).
# System: chlorine-induced ALI
# Experiment: Chlorine gas-induced ALI model in ventilated pigs
# Settings: compared with vehicle-treated pigs, average 12-24 hours post exposure
smiles,measurement,setting,value
CC(=N)NCCSCC[C@H](N)C(=O)O,decrease in the Alveolar-arterial (A-a) O2 gradient,"200 mg intramuscular 1 hour after 240 ppm chlorine for 1 hour, FIG. 1",55%
same,increase in ratio of arterial oxygen partial pressure to fractional inspired oxygen (PaO2/FiO2 ratio),"200 mg intramuscular 1 hour after chlorine, FIG. 2",41%
same,decrease in Oxygenation index,"200 mg intramuscular 1 hour after chlorine, FIG. 3",60%
same,decrease in Airway Resistance,"200 mg intramuscular 1 hour after chlorine, FIG. 4",69%
same,decrease in Peak Inspiratory Pressures,"200 mg intramuscular 1 hour after chlorine, FIG. 5",42%
same,increase in Lung Dynamic Compliance,"200 mg intramuscular 1 hour after chlorine, FIG. 6",33%
same,decrease in O2 Saturation drop,"200 mg intramuscular 1 hour after chlorine, FIG. 7",49%
same,decrease in Mean Airway Pressure,"200 mg intramuscular 1 hour after chlorine, FIG. 8",57%
